Test results published in publication PMC9748978 (RSC Advances, 2022).

Assays:
[1] = Solubility in water; assay type: physicochemical; conditions: 25 °C, 24 h
[2] = Accumulation in the skin after 24 h penetration; assay type: in vitro ADME, pig; conditions: after 24 h of penetration from solution, porcine skin
Summary of the method: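 Franz diffusion cells with porcine abdominal skin, PBS (pH 7.4) acceptor at 37.0 ± 0.5 °C. After 24 h penetration the skin was removed, rinsed in PBS pH 7.4, dried at room temperature, weighed, cut to the 1 cm2 diffusion area and minced. It was then extracted in methanol for 24 h at 4 °C, homogenized 3 min and centrifuged at 3500 rpm for 5 min. Supernatant was assayed by HPLC, expressed as μg IBU per g skin.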

## L-histidine propyl ester bis(ibuprofenate) [[HisOPr][IBU]]
[1]
  Solubility in water: 9.801 ± 0.067 g dm^−3
  Solubility in water (as ibuprofen): 4.775 ± 0.046 g IBU per dm^3
[2]
  accumulation in the skin: 461.56 ± 29.77 μg IBU per g skin
